“And” between values parts separate entries of the source, which are not always exact repeats. Equal entries are not always repeated. The list shows a part of the results, in another mix than the full data. Where a structure was tested more than once in an assay, its records may differ in their call. The source made the active and inactive calls. Cut-off read from the data, not from the text of the source: active = fold change permeability below about 0.7 or above about 1.3; inactive = in between.

This test in a line: modulators of brain endothelial barrier permeability, primary screen, cell-based, FITC-avidin fluorescence, HTS (AID 1963498). Note: test concentration not given here. The settings on record: actives lie on both sides.
In the case of `CN1C(C(=O)Nc2ccccn2)=C(O)c2ccccc2S1(=O)=O`, the fold change permeability was inactive: 1.2.

As for `CC(Cc1ccc(O)cc1)NCC(O)c1cc(O)cc(O)c1` (stereo not given), the fold change permeability is active: 0.7.

With `CC(C)NCC(O)COc1ccc(CC(N)=O)cc1` (stereo not given), the fold change permeability was inactive: 0.9.

As for `CC(C)NC[C@H](O)COc1ccc(CC(N)=O)cc1`, the fold change permeability is inactive: 1.2.

With `CN(C(=O)Cc1ccc(Cl)c(Cl)c1)[C@@H]1CC[C@]2(CCCO2)C[C@H]1N1CCCC1`, the fold change permeability was active: 1.8.

As for `Cn1c(=O)c2[nH]cnc2n(C)c1=O`, the fold change permeability was inactive: 0.9 and active: 0.7.

Regarding `CN(C(=O)Cc1ccc(Cl)c(Cl)c1)[C@H]1CCCC[C@@H]1N1CCCC1`, the fold change permeability is active: 1.3.

As to `O=C1NC[C@@]2(CN3CCC2CC3)O1`, the fold change permeability was inactive: 1.1.

Regarding `CN(C(=O)Cc1ccccc1)[C@H]1CC[C@@]2(CCCO2)C[C@@H]1N1CCCC1`, the fold change permeability is active: 0.7.

Turning to `NC(N)=NC(=O)c1nc(Cl)c(N)nc1N`, the fold change permeability was inactive: 1.1.

The record behind these values is PubChem BioAssay.
